Test results taken from US12686690B2, “Macrocyclic urea orexin receptor agonists” (Merck Sharp & Dohme LLC, priority 2020, dated 2026).

By UniProt entry, the sequences of proteins in these tests, tags left out.
UniProt O43614, whole entry: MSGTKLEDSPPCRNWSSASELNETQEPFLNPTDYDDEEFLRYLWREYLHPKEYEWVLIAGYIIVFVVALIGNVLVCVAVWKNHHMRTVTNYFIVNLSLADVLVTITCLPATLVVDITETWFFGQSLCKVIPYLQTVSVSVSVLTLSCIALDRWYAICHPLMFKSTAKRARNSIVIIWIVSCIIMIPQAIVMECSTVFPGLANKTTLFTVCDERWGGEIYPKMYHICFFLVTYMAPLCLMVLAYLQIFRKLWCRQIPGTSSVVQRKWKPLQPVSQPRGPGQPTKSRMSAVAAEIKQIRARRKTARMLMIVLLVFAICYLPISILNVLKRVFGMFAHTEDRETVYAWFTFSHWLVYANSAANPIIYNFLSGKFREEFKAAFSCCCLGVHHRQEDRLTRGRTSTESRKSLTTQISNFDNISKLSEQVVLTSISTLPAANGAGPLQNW

Molecular target: hOX2R (Homo sapiens, UniProt O43614)
Assay: hOX2R IPone assay (orexin receptor agonism)
Assay type: cell-based
Conditions: read-out: hOX2R_IPone EC50; orexin receptor agonist, IPone readout

CCN1C(=O)NC(CCC(F)(F)F)CCC(F)(F)CCOc2nc(cn3ccnc23)-c2cc(ncc2OC)[C@H]1C (single isomer, unassigned)
EC50: 1.8 nM
